Ab-95 light chain CDR variants: yeast mating affinities

Binding partner: SARS-CoV-2 spike HR2 peptide, sequence PDVDLGDISGINAS.

The variants keep the heavy chain, the linker and the frameworks of Ab-95 (scFv order VH, a (GGGGS)3 linker, VL).
VH: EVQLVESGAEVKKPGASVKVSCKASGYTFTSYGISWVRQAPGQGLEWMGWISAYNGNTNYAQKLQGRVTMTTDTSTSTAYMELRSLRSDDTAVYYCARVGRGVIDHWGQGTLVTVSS
VL: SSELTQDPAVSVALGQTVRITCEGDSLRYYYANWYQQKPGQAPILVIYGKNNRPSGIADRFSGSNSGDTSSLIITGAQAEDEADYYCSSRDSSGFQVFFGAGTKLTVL

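Variants in AAYL52 differ from the parent at up to three CDR positions; double and triple changes were sampled at random. The scFvs were displayed on barcoded MATa yeast, the peptide on MATalpha yeast. Mating (16 h, 30 °C) was followed by selection of diploids and sequencing of their barcodes. The ratio of observed to expected reads was calibrated, replicate by replicate, on BCL2-family standards whose Kd was known from biolayer interferometry. The assay was run in three technical replicates.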

Changes read parent residue, position, new residue, counted from the first residue of the VL shown.
All variants listed here change S55 of the VL, counted from its first residue.
Each Kd is an estimate from the mating assay, the geometric mean of the replicates in which the pair was seen; lower is stronger.
"not detected" marks a missing value. The strain was present, yet no cells mated with the target were sequenced in any replicate, which points to weak or no binding.
Empty control strains, which show no peptide, gave a signal in 28% of pairings with library AAYL52; the median was 8.2 µM and 95% of these signals were weaker than 800 nM. No background was subtracted. Also given: how often the same scFv was detected with the empty control strains.

changes,Kd (apparent),detected,control signals
S55T+S92M+Q96A,390 nM,3/3,4/9
S26L+N51Q+S55I,1.4 µM,2/3,3/9
S55W,230 nM,3/3,2/9
L27R+S55E+S89F,2.0 µM,1/3,3/9
G24P+S55D+Q96C,28 µM,3/3,4/9
S55G+S88F,990 nM,3/3,1/9
S55T+S88C+Q96T,4.4 µM,3/3,1/9
D25L+S55P+R90F,450 nM,3/3,6/9
Y30E+N52Q+S55T,11 nM,3/3,3/9
E23W+P54C+S55K,1.2 µM,1/3,4/9
R53D+S55D+Q96E,62 µM,3/3,5/9
N51I+S55A+S88W,92 µM,3/3,2/9
S55H+S88T+G94C,200 µM,2/3,4/9
S55H+G94Y+V97S,1.0 µM,3/3,7/9
L27N+S55P+F98Y,900 nM,3/3,2/9
S55Q+Q96E,230 nM,3/3,4/9
G49W+S55G+F98G,12 µM,1/3,2/9
Y29Q+N33H+S55H,1.4 µM,3/3,0/9
S55D+R90L+S93T,3.0 µM,3/3,2/9
S55D+S89T+D91S,36 nM,3/3,1/9
N51K+S55C+S89R,5.5 µM,1/3,3/9
N51G+S55F+Q96L,880 nM,3/3,4/9
S55T+D91Q+G94V,3.2 µM,2/3,2/9
K50S+S55Q+S88R,5.6 µM,3/3,2/9
Y30K+N51D+S55P,170 nM,3/3,7/9
G49D+R53Q+S55N,5.0 µM,2/3,2/9
G24Y+S55V,2.5 µM,1/3,0/9
S55T,79 nM,3/3,2/9
R28V+Y30E+S55H,54 nM,3/3,0/9
D25F+S55A+F98P,430 nM,3/3,3/9
Y31C+N51L+S55T,11 µM,2/3,1/9
D25T+N51K+S55W,3.3 µM,1/3,3/9
N51V+S55E+F98L,2.3 µM,3/3,4/9
R28Q+Y31M+S55V,160 nM,3/3,1/9
Y29L+N33M+S55I,11 µM,1/3,3/9
A32K+R53E+S55Q,63 µM,2/3,3/9
G49R+S55W+R90V,9.0 µM,1/3,3/9
E23T+G24A+S55F,250 nM,3/3,4/9
S55G+Q96S+V97L,1.5 µM,3/3,4/9
Y29L+Y30T+S55G,140 nM,3/3,4/9
K50R+S55E+D91F,350 nM,3/3,4/9
G24I+S55M+S88A,1.8 µM,2/3,5/9
L27I+Y31R+S55D,510 nM,3/3,2/9
A32T+S55D+S93D,4.6 µM,3/3,1/9
R53S+S55D+S89H,3.0 µM,2/3,2/9
N52Y+S55C,not detected,0/3,0/9
K50H+S55E+S89H,64 nM,3/3,2/9
S26L+Y30P+S55E,210 nM,3/3,2/9

Repeated from above, the 7 best binders with a signal in all replicates:

changes,Kd (apparent),detected,control signals
Y30E+N52Q+S55T,11 nM,3/3,3/9
S55D+S89T+D91S,36 nM,3/3,1/9
R28V+Y30E+S55H,54 nM,3/3,0/9
K50H+S55E+S89H,64 nM,3/3,2/9
S55T,79 nM,3/3,2/9
Y29L+Y30T+S55G,140 nM,3/3,4/9
R28Q+Y31M+S55V,160 nM,3/3,1/9

Data: MIT Lincoln Laboratory AlphaSeq set, Engelhart et al. 2022, doi:10.1038/s41597-022-01779-4, as distributed in FLAb.